# Reference: US12454549B2, “Treatments for diseases and disorders that involve oxidative stress” (Jenius Pharma, LLC, priority 2017, dated 2025)
# Several values for one entry are separate records, joined by “and”; a condition that tells them apart may be missing. Identical values can stand only once. Like-named read-outs stand apart in the source and are kept apart here. Marks after values point to notes of the source that are not given here.
# Assays:
# [1] = system: human RPE cells; conditions: for % RPE Protection (High HQ): donor RPE cells stressed with high level of hydroquinone; for % RPE Protection (Low HQ): donor RPE cells stressed with low level of hydroquinone; for Cytoprotective effect / cell viability in stressed RPE cells (in words): HQ- (or CCCP-) stressed RPE cells
# [2] = system: retinal neovascularization in OIR mice; conditions: for % NV Reduction Compared to Control Peptide: 10 μg per eye intravitreal, vs inactive Control Peptide GRGETP; for % NV Reduction: single intravitreal injection 10 μg per eye, summary Table 3
# [3] = system: primary human RPE cells; conditions: HQ 180 μM, RSG 800 μM or ALG-3002 100 μM, 4 hours, transmission EM
# [4] = system: human RPE cells; conditions: for Glutathione (GSH) level in HQ stressed RPE cells: 160 μM HQ + 400 μM peptide, 1.5 hours; for Effect on GSH level (in words): cells stressed with HQ; for Glutathione (GSH) level, peptide alone: unstressed RPE cells, 400 μM peptide
# [5] = system: human RPE cells; conditions: for Effect on mitochondria membrane potential (in words): cells co-treated with HQ; for % Mitochondrial Membrane Potential, peptide alone: unstressed RPE cells, compared to control
# [6] = system: human RPE cells; conditions: for Effect on ROS level in stressed RPE cells (in words): co-treatment with HQ; for % Reactive Species, peptide alone: unstressed RPE cells, % of control
SMILES,% RPE Protection (High HQ) [1],% RPE Protection (Low HQ) [1],% NV Reduction [2],Cell viability (% of MEM) ([1]; HQ 140 μM + 400 μM peptide),Cell viability (% of MEM) ([1]; HQ 140 μM + 800 μM peptide),Cell viability (% of MEM) ([1]; HQ 160 μM + 400 μM peptide),Cell viability (% of MEM) ([1]; HQ 160 μM + 800 μM peptide) [%****],% NV Reduction Compared to Control Peptide [2],Effect on mitochondria membrane potential (in words) [5],Effect on ROS level in stressed RPE cells (in words) [6],Cytoprotective effect / cell viability in stressed RPE cells (in words) [1],also measured
"CC(O)[C@H](NC(=O)[C@H](CS(=O)(=O)O)NC(=O)[C@H](C)NC(=O)[C@H](CCCNC(=N)N)NC(=O)CN)C(=O)N1CCC[C@H]1C(=O)O (stereo partly drawn) [ALG-3001, Gly-Arg-Ala-Cys(acid)-Thr-Pro]",15%,15%,50-60%,–,–,–,–,–,–,–,–,Cell viability (% of MEM) ([1]; HQ 150 μM + 400 μM peptide): 27%***; Cell viability (% of MEM) ([1]; HQ 150 μM + 800 μM peptide): 37%****; Cell viability (% of MEM) ([1]; HQ 170 μM + 400 μM peptide): 27%****; Cell viability (% of MEM) ([1]; HQ 170 μM + 800 μM peptide): 53%****; % NV Reduction Compared to Control Peptide ([2]; listed as ALG-3001 (P1)): 60% and 50%
"CC(O)[C@H](NC(=O)CNC(=O)[C@H](CC(=O)O)NC(=O)[C@H](CCCNC(=N)N)NC(=O)CN)C(=O)N1CCC[C@H]1C(=O)O (stereo partly drawn) [ALG-3003, Gly-Arg-Asp-Gly-Thr-Pro]",17%,29%,44%,50%****,73%****,50%****,54,44%,–,–,–,–
"CC(O)[C@H](NC(=O)[C@H](CC(N)=O)NC(=O)CNC(=O)[C@H](CCCNC(=N)N)NC(=O)CN)C(=O)N1CCC[C@H]1C(=O)O (stereo partly drawn) [ALG-3005, Gly-Arg-Gly-Asn-Thr-Pro]",16%,53%,64%,82%****,95%****,36%***,70,64%,–,–,–,–
"C[C@@H](O)[C@H](NC(=O)[C@H](CS(=O)(=O)O)NC(=O)CNC(=O)[C@H](CCCNC(=N)N)NC(=O)CN)C(=O)N1CCC[C@H]1C(=O)O [Risuteganib, Glycyl-L-arginylglycyl-3-sulfo-L-alanyl-L-threonyl-L-proline, reference compound]",13-20%,12-38%,47-64%,–,–,–,–,47-64%,–,–,–,"Effect on HQ-induced morphologic changes in mitochondria (in words) [3]: significantly reduce the severity of HQ-induced morphologic changes in mitochondria; Cell viability (% of MEM) ([1]; HQ 150 μM + 400 μM peptide): 24%**; Cell viability (% of MEM) ([1]; HQ 170 μM + 400 μM peptide): 29%**; Glutathione (GSH) level in HQ stressed RPE cells [4]: 3284↑ RLU/LDH units; Effect on GSH level (in words) [4]: significantly improved GSH level; Glutathione (GSH) level, peptide alone [4]: 8995↑ RLU/LDH units"
"CC(O)[C@H](NC(=O)[C@H](CCC(=O)O)NC(=O)[C@H](C)NC(=O)[C@H](CCCNC(=N)N)NC(=O)CN)C(=O)N1CCC[C@H]1C(=O)O (stereo partly drawn) [ALG-3004, Gly-Arg-Ala-Glu-Thr-Pro]",41%,65%,63%,94%****,99%****,60%****,90,63%,significantly improve mitochondria membrane potential,significantly reduce ROS level,greater cytoprotective effect than RSG,"% Mitochondrial Membrane Potential, peptide alone ([5]; peptide 400 μM): 110%*; % Reactive Species, peptide alone ([6]; peptide 400 μM): 100% NS"
"CC(O)[C@H](NC(=O)[C@H](CCCNC(=N)N)NC(=O)CNC(=O)[C@H](CC(=O)O)NC(=O)CN)C(=O)N1CCC[C@H]1C(=O)O (stereo partly drawn) [ALG-3007, Gly-Asp-Gly-Arg-Thr-Pro]",31%,48%,56%,81%****,97%****,45%****,73,56%,significantly improve mitochondria membrane potential,significantly reduce ROS level,greater cytoprotective effect than RSG,"% Mitochondrial Membrane Potential, peptide alone ([5]; peptide 400 μM): 115%**; % Reactive Species, peptide alone ([6]; peptide 400 μM): 82% NS"
"CC(O)[C@H](NC(=O)[C@H](CS)NC(=O)CNC(=O)[C@H](CCCNC(=N)N)NC(=O)CN)C(=O)N1CCC[C@H]1C(=O)O (stereo partly drawn) [ALG-3002, Gly-Arg-Gly-Cys-Thr-Pro]",81%,80%,66%,–,–,–,–,66%,significantly improve mitochondria membrane potential,significantly reduce ROS level,–,"% Mitochondrial Membrane Potential, peptide alone ([5]; peptide 100 μM): 100% NS; % Reactive Species, peptide alone ([6]; peptide 100 μM): 73%*; Effect on HQ-induced morphologic changes in mitochondria (in words) [3]: significantly reduce the severity of HQ-induced morphologic changes in mitochondria; RPE Cell Viability, CCCP + ALG-3002 ([1]; CCCP-stressed RPE cells, 100 uM): 88%****; Cell viability (% of MEM) ([1]; HQ 140 μM + 25 μM peptide): 123%****; Cell viability (% of MEM) ([1]; HQ 140 μM + 100 μM peptide): 116%****; Cell viability (% of MEM) ([1]; HQ 160 μM + 50 μM peptide): 161%****; Cell viability (% of MEM) ([1]; HQ 160 μM + 100 μM peptide): 163%****; RPE Cell Viability, HQ + ALG-3002 (P2) ([1]; HQ-stressed RPE cells, 100 uM): 103%****; Glutathione (GSH) level in HQ stressed RPE cells [4]: 8060↑ RLU/LDH units; Effect on GSH level (in words) [4]: significantly improved GSH level; Glutathione (GSH) level, peptide alone [4]: 8657↑ RLU/LDH units"
"CC(O)[C@H](NC(=O)[C@H](CCCNC(=N)N)NC(=O)CNC(=O)[C@H](CS(=O)(=O)O)NC(=O)CN)C(=O)N1CCC[C@H]1C(=O)O (stereo partly drawn) [ALG-3008, Gly-Cys(acid)-Gly-Arg-Thr-Pro]",12%,36%,63%,77%***,81%****,38% NS,65,63%,–,–,–,–
"N=C(N)NCCC[C@H](NC(=O)CN)C(=O)NCC(=O)N[C@@H](CS(=O)(=O)O)C(=O)NCC(=O)NCC(=O)NCC(=O)N[C@@H](CC(=O)O)C(=O)NCC(=O)O [ALG-3006, Gly-Arg-Gly-Cys(acid)-Gly-Gly-Gly-Asp-Gly]",25%,50%,62%,83%****,113%****,39%***8,66,62%,–,–,greater cytoprotective effect than RSG,–
"CC(O)[C@H](NC(=O)[C@H](CC(=O)O)NC(=O)CNC(=O)[C@H](CCCCN)NC(=O)CN)C(=O)N1CCC[C@H]1C(=O)O (stereo partly drawn) [ALG-3009, Gly-Lys-Gly-Asp-Thr-Pro]",26%,33%,40%,74%***,69%***,52%****,74,40%,–,–,–,–
